Sequences of proteins named here, by UniProt entry; tags and fusion partners are left off.
UniProt P21447, whole entry: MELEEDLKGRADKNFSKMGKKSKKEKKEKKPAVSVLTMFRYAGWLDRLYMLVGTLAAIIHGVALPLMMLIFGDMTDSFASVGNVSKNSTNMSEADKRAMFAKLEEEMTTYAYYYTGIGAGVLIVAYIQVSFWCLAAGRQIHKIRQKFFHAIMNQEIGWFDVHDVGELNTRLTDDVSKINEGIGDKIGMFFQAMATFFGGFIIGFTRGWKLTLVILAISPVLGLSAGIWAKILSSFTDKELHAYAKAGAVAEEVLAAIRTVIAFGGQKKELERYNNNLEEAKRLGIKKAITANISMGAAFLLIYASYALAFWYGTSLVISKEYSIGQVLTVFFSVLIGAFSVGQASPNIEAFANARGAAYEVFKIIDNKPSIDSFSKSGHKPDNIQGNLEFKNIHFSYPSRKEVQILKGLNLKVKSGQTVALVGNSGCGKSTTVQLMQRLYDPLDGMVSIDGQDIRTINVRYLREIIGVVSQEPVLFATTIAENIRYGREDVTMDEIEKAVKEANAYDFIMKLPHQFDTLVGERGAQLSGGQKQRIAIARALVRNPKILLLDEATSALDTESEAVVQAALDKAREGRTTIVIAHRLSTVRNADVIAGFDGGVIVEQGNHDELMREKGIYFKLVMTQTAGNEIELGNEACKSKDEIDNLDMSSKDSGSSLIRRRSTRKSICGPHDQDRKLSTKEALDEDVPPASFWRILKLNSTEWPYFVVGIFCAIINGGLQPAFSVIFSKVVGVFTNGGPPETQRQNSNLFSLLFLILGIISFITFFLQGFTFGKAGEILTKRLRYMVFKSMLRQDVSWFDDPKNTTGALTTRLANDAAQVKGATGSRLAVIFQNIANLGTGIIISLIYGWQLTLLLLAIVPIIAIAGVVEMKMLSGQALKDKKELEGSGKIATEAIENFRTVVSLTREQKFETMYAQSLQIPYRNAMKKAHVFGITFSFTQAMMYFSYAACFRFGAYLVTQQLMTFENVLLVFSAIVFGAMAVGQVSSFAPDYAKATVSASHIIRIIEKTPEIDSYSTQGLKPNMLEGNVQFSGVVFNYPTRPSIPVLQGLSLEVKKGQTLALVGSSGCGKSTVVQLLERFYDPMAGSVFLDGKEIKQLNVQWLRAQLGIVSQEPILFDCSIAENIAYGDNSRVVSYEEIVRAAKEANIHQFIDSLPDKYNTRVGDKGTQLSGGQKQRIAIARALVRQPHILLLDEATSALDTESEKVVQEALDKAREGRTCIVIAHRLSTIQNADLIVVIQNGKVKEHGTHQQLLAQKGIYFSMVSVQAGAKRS

According to ChEMBL document CHEMBL2073809, “Interrelationship between substrates and inhibitors of human CYP3A and P-glycoprotein” (Pharm Res, 1999):

Molecular target: ATP-dependent translocase ABCB1 (Mus musculus, UniProt P21447)
Assay: TP_TRANSPORTER: no change in brain concentration in mdr1a(-/-) mouse
Format: functional, organism-based
Details: in vivo

## IVERMECTIN
  Activity: is not a substrate [-]
